Literature values as cited in patent US20090325863A1, “Somatostatin analogs and IGF-I inhibition for breast cancer prevention” (priority 2008, published 2009).
Entries after “also recorded” stand apart in the source; their conditions may differ.

The chains behind the UniProt entries cited, without tags or fusion partners.
UniProt P30872, whole entry, species assumed: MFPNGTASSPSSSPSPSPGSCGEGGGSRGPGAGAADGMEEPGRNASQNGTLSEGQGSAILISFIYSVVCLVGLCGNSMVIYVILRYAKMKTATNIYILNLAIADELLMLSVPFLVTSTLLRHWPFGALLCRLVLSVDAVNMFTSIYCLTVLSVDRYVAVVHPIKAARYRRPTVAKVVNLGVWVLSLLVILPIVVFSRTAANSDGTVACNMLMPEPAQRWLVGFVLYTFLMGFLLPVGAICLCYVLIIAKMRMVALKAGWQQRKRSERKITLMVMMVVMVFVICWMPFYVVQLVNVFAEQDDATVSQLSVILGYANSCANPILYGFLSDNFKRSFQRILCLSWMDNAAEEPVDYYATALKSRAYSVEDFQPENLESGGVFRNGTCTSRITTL
UniProt P30874, whole entry, species assumed: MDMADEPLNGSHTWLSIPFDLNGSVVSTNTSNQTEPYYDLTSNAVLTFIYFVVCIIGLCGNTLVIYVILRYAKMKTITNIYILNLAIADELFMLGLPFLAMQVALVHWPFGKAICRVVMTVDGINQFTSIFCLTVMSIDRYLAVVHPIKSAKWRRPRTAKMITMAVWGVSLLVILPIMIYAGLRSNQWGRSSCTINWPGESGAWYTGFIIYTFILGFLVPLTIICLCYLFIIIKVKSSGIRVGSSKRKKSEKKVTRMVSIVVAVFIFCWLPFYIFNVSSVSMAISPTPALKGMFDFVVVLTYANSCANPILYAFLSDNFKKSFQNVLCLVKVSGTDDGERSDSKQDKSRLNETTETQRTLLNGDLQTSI
UniProt P32745, whole entry, species assumed: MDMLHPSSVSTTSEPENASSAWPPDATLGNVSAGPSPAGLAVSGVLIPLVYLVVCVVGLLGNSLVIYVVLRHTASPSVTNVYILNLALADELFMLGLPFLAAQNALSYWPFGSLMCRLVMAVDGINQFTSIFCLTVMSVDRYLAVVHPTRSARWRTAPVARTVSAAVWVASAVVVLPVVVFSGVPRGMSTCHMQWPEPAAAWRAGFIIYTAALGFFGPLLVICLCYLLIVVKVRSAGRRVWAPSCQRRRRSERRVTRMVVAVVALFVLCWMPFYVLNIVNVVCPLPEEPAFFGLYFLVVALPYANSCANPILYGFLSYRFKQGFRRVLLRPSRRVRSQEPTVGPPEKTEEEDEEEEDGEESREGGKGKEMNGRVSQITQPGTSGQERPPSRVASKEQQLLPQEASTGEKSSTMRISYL
UniProt P35346, whole entry, species assumed: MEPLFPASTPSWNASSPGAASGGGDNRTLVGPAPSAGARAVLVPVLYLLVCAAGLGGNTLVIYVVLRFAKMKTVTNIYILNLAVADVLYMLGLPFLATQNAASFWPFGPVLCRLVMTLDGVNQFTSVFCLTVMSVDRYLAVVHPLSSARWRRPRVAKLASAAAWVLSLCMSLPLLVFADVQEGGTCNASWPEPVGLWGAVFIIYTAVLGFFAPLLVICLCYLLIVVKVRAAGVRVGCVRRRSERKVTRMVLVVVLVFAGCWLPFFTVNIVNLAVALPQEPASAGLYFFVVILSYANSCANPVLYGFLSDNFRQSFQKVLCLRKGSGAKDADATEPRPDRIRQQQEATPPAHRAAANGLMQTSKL
UniProt P31391, whole entry, species assumed: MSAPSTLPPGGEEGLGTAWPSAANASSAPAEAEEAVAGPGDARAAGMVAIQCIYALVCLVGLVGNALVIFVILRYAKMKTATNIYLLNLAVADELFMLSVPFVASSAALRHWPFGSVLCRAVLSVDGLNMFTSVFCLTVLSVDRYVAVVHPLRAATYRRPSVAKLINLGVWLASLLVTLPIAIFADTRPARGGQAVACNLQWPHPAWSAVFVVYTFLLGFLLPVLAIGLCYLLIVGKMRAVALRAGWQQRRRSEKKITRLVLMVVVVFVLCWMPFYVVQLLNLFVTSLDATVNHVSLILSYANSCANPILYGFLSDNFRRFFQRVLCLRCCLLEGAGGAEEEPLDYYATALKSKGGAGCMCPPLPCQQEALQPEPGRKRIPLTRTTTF

How the values were obtained:
Conditions in all cases: cited from earlier work
SSTR-1 = SSTR-1 (Homo sapiens, UniProt P30872)
SSTR-2 = SSTR-2 (Homo sapiens, UniProt P30874)
SSTR-3 = SSTR-3 (Homo sapiens, UniProt P32745)
SSTR-5 = SSTR-5 (Homo sapiens, UniProt P35346)
SSTR-4 = SSTR-4 (Homo sapiens, UniProt P31391)

Substance	affinity for SSTR-1 (SSTR-1)	affinity for SSTR-2 (SSTR-2)	affinity for SSTR-3 (SSTR-3)	affinity for SSTR-5 (SSTR-5)	affinity for SSTR-4 (SSTR-4)
vapreotide	low affinity	high affinity	relatively low affinity; also recorded: moderate affinity	relatively low affinity; also recorded: moderate affinity	moderate affinity
Octreotide	low affinity	high affinity	relatively low affinity; also recorded: moderate affinity	relatively low affinity; also recorded: moderate affinity	moderate affinity
